Here are results for one molecule from patent US12048783B2, “2,4-disubstituted pyridines as malodor counteracting ingredients” (FIRMENICH SA, priority 2017, dated 2024).

Each structure is given as a SMILES string.

For this test, the target named is T1, OR51E1 (Homo sapiens, UniProt Q8TCB6).
T1 construct: expressed in transfected cells
T1 sequence (Q8TCB6 1-318): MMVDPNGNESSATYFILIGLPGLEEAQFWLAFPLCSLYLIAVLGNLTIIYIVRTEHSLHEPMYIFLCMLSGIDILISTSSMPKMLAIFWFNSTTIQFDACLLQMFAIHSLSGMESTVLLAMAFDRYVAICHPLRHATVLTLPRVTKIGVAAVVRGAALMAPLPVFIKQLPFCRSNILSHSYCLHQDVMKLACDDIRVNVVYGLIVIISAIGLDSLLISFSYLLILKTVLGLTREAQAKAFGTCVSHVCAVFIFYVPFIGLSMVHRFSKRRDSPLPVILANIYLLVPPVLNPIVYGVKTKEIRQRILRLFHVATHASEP
Briefly: Inhibition of malodor compound induced olfactory receptor activity in stable cell lines. The settings on record: inhibition of OR51E1 activity in presence of a single activating concentration of butyric acid. It counts as cell-based.

For `CCCCCc1cc(C)ccn1`, the “EC50 for 4-methyl-2-pentyl-pyridine” value is “OR51E1: Weak”.
